Earlier results in PMC2649372 (Biochemistry, 2008).

Test system: E129D mutant 5-HT3 receptor
Settings: E129D vs WT; cited from earlier work

CN1C2CCCC1CC(NC(=O)c1nn(C)c3ccccc13)C2 (stereo not shown) [granisetron]
increase in granisetron Kd: ~100 fold
